{
  "sequences": {"note": "By UniProt entry, the sequences of proteins in these tests, tags left out. Residues count along the entry.", "UniProt Q13705, 19-512": "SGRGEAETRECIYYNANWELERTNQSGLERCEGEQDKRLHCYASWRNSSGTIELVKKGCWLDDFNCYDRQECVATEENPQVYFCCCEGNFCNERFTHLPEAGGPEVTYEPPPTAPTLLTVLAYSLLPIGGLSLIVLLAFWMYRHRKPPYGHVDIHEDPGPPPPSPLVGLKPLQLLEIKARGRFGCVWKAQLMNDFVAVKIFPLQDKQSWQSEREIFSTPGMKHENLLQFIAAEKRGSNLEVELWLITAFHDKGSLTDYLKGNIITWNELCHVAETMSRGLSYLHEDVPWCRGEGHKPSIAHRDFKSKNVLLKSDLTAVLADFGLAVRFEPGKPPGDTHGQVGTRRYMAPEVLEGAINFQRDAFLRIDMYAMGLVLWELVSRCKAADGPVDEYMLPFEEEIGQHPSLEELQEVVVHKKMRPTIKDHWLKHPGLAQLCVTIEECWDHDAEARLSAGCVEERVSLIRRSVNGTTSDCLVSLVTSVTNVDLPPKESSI"},
  "source": "patent US20240368262A1",
  "about": "“A MYOSTATIN PATHWAY INHIBITOR IN COMBINATION WITH A GLP-1 PATHWAY ACTIVATOR FOR USE IN TREATING METABOLIC DISORDERS” (SCHOLAR ROCK, INC., priority 2021, published 2024)",
  "origin": "cited, not measured here",
  "biological_target": "T1, Activin Receptor type IIB (Homo sapiens, UniProt Q13705)",
  "T1 construct": "host or cells: human patients (clinical studies)",
  "settings": "cited from earlier work",
  "data": [
    {"substance": "bimagrumab: antibody that binds Activin Receptor type IIB, thereby interfering with ligand binding", "values": [
      {"measurement": "serious adverse events", "setting": "bimagrumab-treated patients over placebo", "result": "increased serious adverse events"},
      {"measurement": "weight, adiposity and lean mass", "setting": "clinical, improving weight, reducing adiposity and preserving lean mass", "result": "clinically beneficial effects"}
    ]}
  ]
}
